# Experimental data reported in US8962670B2, “Anti-cancer agents” (UWM Research Foundation, Inc., priority 2011, dated 2015).
# Columns and labels:
# U251 (CNS Cancer) = assay: cells; format: cell-based; conditions: Homo sapiens, U-251
# 49 mer DNA duplex 292 = format: biochemical
# [1] = test system: Normal lymphocytes obtained from healthy donors
# SNB-19 (CNS Cancer) = assay: cells; format: cell-based; conditions: Homo sapiens
# SK-OV-3 (Ovarian) = assay: cells; format: cell-based; conditions: Homo sapiens
smiles,measurement,setting,value
CC1(C)OB(c2ccc(N(CCCl)CCOS(C)(=O)=O)cc2)OC1(C)C [Compound 6],GI50,U251 (CNS Cancer),0.7 µM
"CC1(C)OB(c2ccc(C[N+](C)(CCCl)CCCl)cc2)OC1(C)C [Compound 40, N,N-Bis(2-chloroethyl)-N-methyl-N-[4-(4,4,5,5-tetramethyl-1,3,2-dioxaborolan-2-yl)phenyl]methanaminium bromide]",concentration of H2O2 at which DNA crosslinking was observed (as low as),49 mer DNA duplex 292,50 µM
same,apoptosis compared to time-matched controls,[1],no increase in apoptosis
"CC1(C)OB(c2ccc(N(CCCl)CCCl)cc2)OC1(C)C [Compound 7, N,N-bis(2-chloroethyl)-4-(4,4,5,5-tetramethyl-1,3,2-dioxaborolan-2-yl)aniline]",GI50,SNB-19 (CNS Cancer),8.06 µM
same,GI50,SK-OV-3 (Ovarian),8.03 µM
